In ChEMBL document CHEMBL3351783, “Structural insights into carbonic anhydrase IX isoform specificity of carbohydrate-based sulfamates” (J Med Chem, 2014):

Target: Carbonic anhydrase 9 (Homo sapiens, UniProt Q16790)
Experiment: Inhibition of human recombinant carbonic anhydrase 9 by stopped-flow CO2 hydration assay

Compound | Ki
CC(=O)OC[C@H]1O[C@@H](S(=O)(=O)NCCOS(N)(=O)=O)[C@H](OC(C)=O)[C@@H](OC(C)=O)[C@@H]1OC(C)=O | 215 nM
CC(=O)OC[C@H]1O[C@@H](S(=O)(=O)N2CCC(OS(N)(=O)=O)CC2)[C@H](OC(C)=O)[C@@H](OC(C)=O)[C@@H]1OC(C)=O | 2 nM
